The list shows a part of the results, in another mix than the full data. Calls of active or inactive are those of the source.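 Rule for the calls: active = inhibition at or above 40%; inactive = inhibition below 40%.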

This assay has as its target Prothrombin (Homo sapiens) (UniProt P00734). As to the kind of experiment: blockers of thrombin peptide substrate cleavage – biochemical, 1536-well, fluorogenic AMC substrate, counter-screen for coagulation protease inhibitor project, primary screen (AID 1046).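 Note: 0% = enzyme with no compound and 100% = wells without enzyme.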 Conditions: alpha-thrombin, Boc-VPR-AMC fluorogenic substrate cleavage; at 5 µM; active compounds read high. (The purpose of a counterscreen is to sort out artefacts and off-target activity.)
Broadly, the inhibition is the relative decrease from the control value, in per cent. Take `O=P(Nc1nc2ccc(Cl)cc2s1)(c1ccccc1)c1ccccc1`: the inhibition is inactive: 3.87%.

`Cc1ccc(NP(=O)(Oc2ccccc2F)Oc2ccccc2F)nc1`: the inhibition is inactive: 2.08%.

For the molecule `Cc1cc(SC(NC(=O)c2ccc(F)cc2)C(Cl)(Cl)Cl)ncn1` (stereo not drawn), the inhibition is inactive: -7.96%.

For the molecule `CCOP(=O)(Nc1ccccc1)OCC`, the inhibition was inactive: -6.97%.

`CCN(N=Nc1nonc1N)c1nonc1N`: the inhibition was inactive: -3.24%.

Regarding `Nc1cccc2ccc([As](=O)(O)O)cc12`, the inhibition was inactive: -4.27%.

As for `O=C(Nc1cc([As](=O)(O)O)ccc1O)c1ccccc1`, the inhibition was inactive: 0.02%.

`CC(C)(C)C(=O)NC(Sc1ccncn1)C(Cl)(Cl)Cl` (stereo not drawn): the inhibition is inactive: -9.88%.

With `O=[N+]([O-])c1ncn(CCn2ncnc2[N+](=O)[O-])n1`, the inhibition is inactive: -7.67%.

Regarding `O=[N+]([O-])c1cccc(NC2=NCC(CBr)S2)c1` (stereo not drawn), the inhibition is inactive: -1.12%.

Regarding `O=C(O)CNc1ccc([As](=O)(O)O)cc1`, the inhibition was inactive: -10.5%.

As to `COc1ccc(C2=NCC(CBr)S2)cc1` (stereo not drawn), the inhibition was inactive: -2.01%.

For `CC(=O)N1C2C3N(C(C)=O)C1C1N(C(C)=O)C(C(N1C(C)=O)N3C(C)=O)N2C(C)=O`, the inhibition was inactive: 3.35%.

Take `O=[N+]([O-])c1cccc2n[nH]nc12`: the inhibition was inactive: -0.6%.

Regarding `O=[N+]([O-])c1cc([N+](=O)[O-])c(CCNc2ccccc2)c([N+](=O)[O-])c1`, the inhibition is inactive: 0.22%.

Turning to `CCc1nc2c(n1)c1c(non1O)c1c2no[n+]1[O-]`, the inhibition is inactive: -3.81%.

On to `Cc1ccc(NP(=O)(Oc2ccccc2)Oc2ccccc2)nc1`, for which the inhibition was inactive: -3.76%.

With `C[N+]1=C2C=CC=CC=C2SC12C([N+](=O)[O-])=CC([N+](=O)[O-])=C[C-]2[N+](=O)[O-]` (stereo not drawn), the inhibition is inactive: -2.97%.

For the molecule `Nc1ccc([As](=O)(O)c2ccc(N)cc2)cc1`, the inhibition was inactive: 1.98%.

For `CCN(/C(=N/P(=O)(N1CCOCC1)N1CCOCC1)N1CCOCC1)c1ccc(OC)cc1`, the inhibition was inactive: 9.45%.

In the case of `CN(C)C(=O)OCCc1n(C)cc[n+]1C`, the inhibition is inactive: -10.9%.

Take `CC(C)=N/N=C(\N)N[N+](=O)[O-]`: the inhibition was inactive: -4.77%.

With `CC1CCN(C(=O)Oc2c(Cl)cc(Cl)c3cccnc23)CC1`, the inhibition is inactive: -2.98%.

These data come from PubChem BioAssay AID1046 (PCMD, 2008).
